Results reported in PubChem BioAssay AID1416 (The Scripps Research Institute Molecular Screening Center, 2008).
Only a part is listed here, and it is no random draw. Activity calls are given as the source filed them.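 How the source made its calls: active means inhibition above the mean inhibition of all tested compounds plus 3 SD, set separately per screening campaign (cut at about 2.9% in these data); inactive means the rest.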

Amino acid sequences for entries named in this document (tags omitted).
UniProt Q9NZJ5, whole entry: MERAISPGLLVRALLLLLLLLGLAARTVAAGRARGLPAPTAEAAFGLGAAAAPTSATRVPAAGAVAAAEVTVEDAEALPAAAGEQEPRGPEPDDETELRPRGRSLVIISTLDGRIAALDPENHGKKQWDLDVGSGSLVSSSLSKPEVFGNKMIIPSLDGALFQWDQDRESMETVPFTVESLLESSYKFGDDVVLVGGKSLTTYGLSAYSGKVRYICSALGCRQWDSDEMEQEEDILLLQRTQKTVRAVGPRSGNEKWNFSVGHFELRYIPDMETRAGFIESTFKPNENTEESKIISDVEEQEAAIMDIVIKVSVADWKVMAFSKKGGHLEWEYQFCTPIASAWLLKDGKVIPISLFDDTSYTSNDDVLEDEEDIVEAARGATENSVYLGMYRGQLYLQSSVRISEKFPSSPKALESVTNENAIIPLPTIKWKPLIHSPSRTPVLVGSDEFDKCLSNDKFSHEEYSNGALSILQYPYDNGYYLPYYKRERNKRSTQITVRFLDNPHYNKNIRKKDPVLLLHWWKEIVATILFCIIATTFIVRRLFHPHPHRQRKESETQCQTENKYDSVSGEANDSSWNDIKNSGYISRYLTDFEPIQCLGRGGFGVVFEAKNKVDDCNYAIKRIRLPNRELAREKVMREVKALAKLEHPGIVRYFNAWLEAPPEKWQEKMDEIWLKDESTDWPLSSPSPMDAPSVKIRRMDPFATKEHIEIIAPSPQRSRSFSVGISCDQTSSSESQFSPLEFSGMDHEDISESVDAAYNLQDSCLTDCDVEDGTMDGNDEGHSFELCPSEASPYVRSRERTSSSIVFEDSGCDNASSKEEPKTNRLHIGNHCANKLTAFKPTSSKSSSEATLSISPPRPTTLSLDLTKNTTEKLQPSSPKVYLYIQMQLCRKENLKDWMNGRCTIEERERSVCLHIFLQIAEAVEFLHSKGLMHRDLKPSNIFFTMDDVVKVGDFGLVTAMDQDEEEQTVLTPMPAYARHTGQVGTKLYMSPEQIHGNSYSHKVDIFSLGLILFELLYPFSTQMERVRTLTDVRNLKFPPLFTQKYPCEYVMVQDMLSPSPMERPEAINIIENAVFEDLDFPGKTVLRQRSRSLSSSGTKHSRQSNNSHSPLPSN

Target: Eukaryotic translation initiation factor 2-alpha kinase 3 (Homo sapiens) (UniProt Q9NZJ5)
Experiment: SEAP translation reporter rise after PERK-DD activation – CHO PERK-DD cells, SEAP luminescence, HTS, PERK inhibitor project, primary screen (AID 1416);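 further: PERK kinase domain activated by AP20187 dimerizer at 100 nM; 0% = DMSO with dimerizer and 100% = rapamycin at 8.4 µM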
Conditions: CHO PERK-DD fusion, at 5.6 µM, stronger effect = higher value

| Structure (SMILES) | inhibition |
| --- | --- |
| COc1cc(OC)cc(C(=O)NCC2(N3CCOCC3)CCCCC2)c1 | inactive: -0.24% |
| CCC(CO)(C(=O)OC1CN2CCC1CC2)c1ccccc1 (centres undefined) | inactive: -0.62% |
| CCCOc1ccc(C)cc1CN(CCCl)CCCl | inactive: 1.79% |
| CCOc1ncccc1C(=O)NCC1(N2CCOCC2)CCCCC1 | inactive: -1.31% |
| CC(C)(C)OC(=O)N1CCC(Nc2ccccc2)CC1 | inactive: -0.17% |
| CCN1CCC(Nc2cccc(F)c2)CC1 | inactive: 0.13% |
| CN(C)c1ccc(C(=O)NCC2(N3CCCCC3)CCCCC2)cc1 | inactive: 0.21% |
| c1ccc(CN2CCC(Nc3ccccc3)CC2)cc1 | inactive: 0.72% |
| N#Cc1ccc(C(=O)NCC2(N3CCCCC3)CCCCC2)cc1 | inactive: 0.35% |
| N/C(=N\O)c1c(N)no[n+]1[O-] | inactive: 0.79% |
| O=C(OC1CN2CCC1CC2)C1c2ccccc2C=Cc2ccccc21 (centres undefined) | inactive: -1.94% |
| COc1ccc(C(=O)NCC2(N3CCOCC3)CCCCC2)cc1OC | inactive: 0.55% |
| CN1CCC(Nc2cccc(F)c2)CC1 | inactive: 2.02% |
| CC(C)c1ccc(NC2CCN(C(=O)OC(C)(C)C)CC2)cc1 | inactive: -0.22% |
| COc1ccc(CN(CCCl)CCCl)cc1Cl | inactive: 0.54% |
| CN(C)c1cccc(C(=O)NCC2(N3CCCCC3)CCCCC2)c1 | inactive: 0% |
| O=C(NCC1(N2CCOCC2)CCCCC1)c1cc(=O)[nH]c2ccccc12 | inactive: 0.52% |
| CN1CCN(CCOC(=O)C(O)(c2ccccc2)c2ccccc2)CC1 | inactive: 0.68% |
| COc1ccc(NC2CCN(C(=O)OC(C)(C)C)CC2)cc1 | inactive: -0.07% |
| N#CC1(Nc2ccccc2)CCN(CCc2ccccc2)CC1 | inactive: -0.64% |
| O=C(NCC1(N2CCCCC2)CCCCC1)c1cccc([N+](=O)[O-])c1 | inactive: -0.67% |
| Cc1ccc(OCC(C)C)c(CN(CCCl)CCCl)c1 | inactive: 0.77% |
| CCOc1ccc(C)cc1CN(CCCl)CCCl | inactive: 1.6% |
| COc1ccc(NC2CCN(CCc3ccccc3)CC2)c(OC)c1 | inactive: -0.42% |
| O=C(NCC1(N2CCOCC2)CCCCC1)c1cc2ccccc2o1 | inactive: -1.19% |
| O=C(OC1CN2CCC1CC2)C1c2ccccc2Oc2ccccc21 (centres undefined) | inactive: -0.55% |
| N#CC1(Nc2ccccc2)CCN(Cc2ccccc2)CC1 | inactive: 1.82% |
| CCOC(=O)N1CCC(Nc2ccc(OC)cc2)CC1 | inactive: 1.18% |
| COc1ccc(C(=O)NCC2(N3CCCCC3)CCCCC2)c(OC)c1OC | inactive: 1.29% |
